The values that follow come from US11485741B2.

The chains behind the UniProt entries cited, without tags or fusion partners. Residues count along the entry.
UniProt Q9NYK1, 27-1049 limits assumed: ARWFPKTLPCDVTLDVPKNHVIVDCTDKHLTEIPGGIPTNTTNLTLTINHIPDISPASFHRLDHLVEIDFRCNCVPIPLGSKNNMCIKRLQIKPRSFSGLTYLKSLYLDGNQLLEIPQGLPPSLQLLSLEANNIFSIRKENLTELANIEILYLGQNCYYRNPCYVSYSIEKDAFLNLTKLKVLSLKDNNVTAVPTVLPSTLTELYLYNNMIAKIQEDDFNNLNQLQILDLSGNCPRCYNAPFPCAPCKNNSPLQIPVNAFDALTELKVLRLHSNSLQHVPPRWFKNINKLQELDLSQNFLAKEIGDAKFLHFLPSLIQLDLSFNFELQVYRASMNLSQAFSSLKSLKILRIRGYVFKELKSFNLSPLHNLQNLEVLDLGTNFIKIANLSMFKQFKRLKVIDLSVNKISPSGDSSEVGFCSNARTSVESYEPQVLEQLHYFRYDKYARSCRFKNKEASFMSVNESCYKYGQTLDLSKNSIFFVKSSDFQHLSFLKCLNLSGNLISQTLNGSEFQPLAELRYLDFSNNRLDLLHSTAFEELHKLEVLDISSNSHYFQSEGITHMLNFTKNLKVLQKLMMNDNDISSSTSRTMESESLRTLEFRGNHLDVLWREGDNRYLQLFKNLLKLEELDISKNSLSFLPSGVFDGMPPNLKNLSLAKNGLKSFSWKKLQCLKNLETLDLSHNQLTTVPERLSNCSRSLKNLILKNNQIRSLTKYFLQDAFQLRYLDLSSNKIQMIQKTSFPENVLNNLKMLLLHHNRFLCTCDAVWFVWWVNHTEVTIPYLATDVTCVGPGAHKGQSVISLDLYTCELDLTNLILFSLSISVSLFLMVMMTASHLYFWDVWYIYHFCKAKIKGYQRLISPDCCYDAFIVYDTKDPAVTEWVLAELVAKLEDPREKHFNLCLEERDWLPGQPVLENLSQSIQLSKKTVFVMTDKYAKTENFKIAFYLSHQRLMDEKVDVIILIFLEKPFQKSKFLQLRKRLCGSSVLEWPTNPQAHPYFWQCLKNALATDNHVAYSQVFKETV

In assay [1] the target is human TLR7 (Homo sapiens, UniProt Q9NYK1).
Assay [2] concerns interleukin 6 (IL-6). Kind of assay: Interleukin 6 induction assay in human whole blood (AlphaLISA). It is filed as cell-based. As to conditions: read-out: IL-6 Induction EC50 (nM) (normalized 10 μM), 20 h at 37° C., 100% set by resiquimod reference at 10 μM, average if more than one assay. A general note: In Alpha technology, singlet oxygen from a donor bead excites a nearby acceptor bead.

For orientation: EC50 means the concentration needed to bring the measured effect to its halfway point. With `Nc1nc2nc3c1nc(O)n3Cc1ccc(Oc3ccc(CNC4CCC4)cc3)c(c1)C/C=C/CCO2`, the EC50 in assay [1] was 8.9 nM; in assay [2], 6.6 nM.

For `Nc1nc2nc3c1nc(O)n3Cc1ccc(-c3ccc(CN[C@H]4C[C@H](O)C4)cc3)c(c1)C/C=C\CCO2`, the EC50 amounted to 0.32 nM in assay [1] and 1.5 nM in assay [2].

Turning to `Nc1nc2nc3c1nc(O)n3Cc1ccc(-c3ccc(CNC4C5CC4C5)cc3)c(c1)C/C=C\CCO2` (stereo not drawn), the EC50 in assay [1] came out at 0.76 nM; in assay [2] it was 1.3 nM.
